{
  "source": "patent US9446039B2",
  "about": "“Aminoheteroaryl compounds as MTH1 inhibitors” (CEMM—FORSCHUNGSZENTRUM FÜR MOLEKULARE MEDIZIN GMBH, priority 2012, dated 2016)",
  "key": {"MDA-MB-231": {"test_system": "MDA-MB-231", "settings": "10 μM, versus DMSO-treated cells; KRAS G13D"}, "MCF-7": {"test_system": "MCF-7", "settings": "10 μM, versus DMSO-treated cells"}},
  "data": [
    {"compound": "C[C@@H](Oc1cc(-c2cnn(C3CCNCC3)c2)cnc1N)c1c(Cl)ccc(F)c1Cl", "values": [
      {"measurement": "growth of MDA-MB-231 in colony formation assay", "setting": "MDA-MB-231", "result": "significantly decreased the growth"},
      {"measurement": "growth of MCF-7 in colony formation assay", "setting": "MCF-7", "result": "significantly decreased the growth"}
    ]}
  ]
}
